Measured values published in patent publication US9120797B2, “Process for preparing spirocyclic cyclohexane compounds, compositions containing such compounds and method of using such compounds” (dated 2015).

How the values were obtained:
mice = assay: Tail flick test in mice; conditions: dose 1 mg/kg, % of maximum possible antinociceptive effect
[1] = Investigations of cardiovascular tolerability; conditions: compared with the opioids fentanyl and sufentanil

Compound: CC1Cc2c([nH]c3ccccc23)C2(CCC(c3ccccc3)(N(C)C)CC2)N1 (centres unmarked)
- Tail flick (mouse, i.v.) % inhibition (dose [mg/kg]) (mice): 100% (1)

Compound: CN(C)C1(c2ccccc2)CCC2(CC1)OCCc1c2[nH]c2ccccc12 (single isomer, unassigned)
- cardiovascular tolerability [1]: has advantages in respect of cardiovascular tolerability
